Only some compounds are listed: those with a hit (about 2.2% of all), similar ones and a draw of the others.
S100A4 inh HTS: inhibitors of S100A4-myosin IIA peptide binding, primary screen, biochemical, fluorescence polarization, TAMRA-MyoIIA peptide. inhibition, % at 10.7 µM. actives 0.14% (n = 360,000);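 active means mean inhibition of at least 70% across replicates, with every replicate also reaching that level; inconclusive means mean inhibition reaches 70% but some replicates fall short; inactive means mean inhibition below 70%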
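assay system = human S100A4 monomer with TAMRA-labelled myosin IIA peptide | also added = labelled myosin peptide probe, 5 nM | incubation = 5 min between mix addition and reading | control set = DMSO and TFP controls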
PDI turbidity: inhibitors of human PDI, primary screen, biochemical, turbidity, single point, plate reader; AID 588391, 2011; PDI insulin aggregation turbidity, A650, 90 min; actives 0.052% (n = 350,000); inhibition, % at 10 µM; Protein disulfide-isomerase (Homo sapiens), P07237;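 active means mean inhibition across replicates of 30% or more, whatever share of single replicates reach that level; inconclusive means mean inhibition below 30% while every single replicate reaches 30%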
SIRT5 inh: SIRT5 desuccinylase inhibitors, primary screen, biochemical, fluorescence imaging, single point, set 5; NAD-dependent protein deacylase sirtuin-5, mitochondrial (Homo sapiens), Q9NXA8; Purified SirT5, succinyl-peptide AMC, trypsin-coupled fluorescence; inhibition, % at 15 µM; actives 1.1% (n = 330,000); in the data active means inhibition above about 15%; inconclusive means no clear call, values can overlap the other calls
Yeast UUG start: alters start codon recognition fidelity in yeast | S. cerevisiae UUG-firefly luciferase reporter, luminescence/redox ratio | activity score, % at 18.7 µM | 350,000 compounds, 0.13% hits | AID 602363;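 active = replicate mean at a twofold rise or more, about +100% in these data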;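 note: firefly luciferase made from a UUG start codon reports start codon fidelity; reporter light over untreated wells divided by growth signal over untreated wells; some hits fall short of that in this replicate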
ERp5 block: inhibitors of ERp5-driven insulin aggregation, primary screen, biochemical, turbidity, absorbance 650 nm, single point; 90 min; inhibition, % at 9.99 µM; actives 0.05% (n = 350,000); Protein disulfide-isomerase A6 (Homo sapiens), Q15084;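 active means mean replicate inhibition above about 25%, with every replicate also reaching it, limit read from the data, passing the limit was not always enough; inconclusive means only one of those two criteria met; inactive means neither criterion met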
FGF22 binding: binders of human FGF22 protein, primary screen, FGF22 synaptogenesis inhibitor project, biophysical, thermal shift, single point; AID 651658, 2012; recombinant FGF22 thermal shift, SYPRO orange fluorescence; percent of sucrose octasulfate shift, DMSO zero; actives 1.5% (n = 340,000); activity (Tm shift, normalised), % at 9.99 µM;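 active means mean Tm shift, scaled 0 neutral to 100 positive control, at about 1.3% or above, every replicate too, limit read from the data; inconclusive means no clear call, values can overlap the other calls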
Each line names hits and unclear results; the compound was inactive in the other large screens.

Chains of the proteins cited; added tags and fusions are not shown.
Protein disulfide-isomerase (Homo sapiens), P07237, UniProt P07237, whole entry, looked up: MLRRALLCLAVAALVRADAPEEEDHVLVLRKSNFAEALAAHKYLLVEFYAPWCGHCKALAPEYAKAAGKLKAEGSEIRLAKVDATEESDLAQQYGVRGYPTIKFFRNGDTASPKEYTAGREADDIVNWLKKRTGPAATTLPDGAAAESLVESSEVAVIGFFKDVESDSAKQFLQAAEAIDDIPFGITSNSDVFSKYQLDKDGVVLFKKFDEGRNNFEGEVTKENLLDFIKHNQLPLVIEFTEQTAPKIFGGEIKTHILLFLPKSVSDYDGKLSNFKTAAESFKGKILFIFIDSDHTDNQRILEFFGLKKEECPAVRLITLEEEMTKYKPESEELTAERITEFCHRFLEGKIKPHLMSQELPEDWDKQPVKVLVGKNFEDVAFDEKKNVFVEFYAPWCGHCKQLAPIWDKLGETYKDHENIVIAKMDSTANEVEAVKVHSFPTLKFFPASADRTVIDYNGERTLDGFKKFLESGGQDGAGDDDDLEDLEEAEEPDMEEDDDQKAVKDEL

CCNC(=O)Nc1ccc2c(c1)C(=O)N(C)[C@@H]1CC[C@H](CC(=O)N[C@@H](C)c3ccccc3)O[C@H]1CO2	none (no result: PDI turbidity, Yeast UUG start)
CCN1[C@@H]2c3ccc(/C=C/c4ccccc4)c(=O)n3C[C@H]1[C@H](CO)[C@H]2C(=O)N1CCOCC1	none (no result: PDI turbidity, Yeast UUG start)
CC(C)NC(=O)N[C@@H]1C=C[C@@H](CC(=O)N2CCCCC2)O[C@H]1CO	none (no result: PDI turbidity)
CS(=O)(=O)N1CCc2cc(S(=O)(=O)N3CCCCC3)ccc21	FGF22 binding 43 (no result: Yeast UUG start)
CCCC#Cc1ccc([C@@H]2[C@@H](CO)N3C(=O)CN(C(=O)CN4CCOCC4)C[C@@H]23)cc1	none (no result: PDI turbidity, Yeast UUG start, FGF22 binding)
c1ccc(CCCNc2ncnc3nc[nH]c23)cc1	SIRT5 inh 18
O=c1nccc(N/N=C/c2ccccc2)[nH]1	SIRT5 inh 24
Nc1ccc(Cc2ccc([N+](=O)[O-])cc2)cc1	FGF22 binding 43 (no result: SIRT5 inh)
CCOC(=O)Cn1nc(C(F)F)c(Br)c1C	FGF22 binding 44 (no result: Yeast UUG start)
COc1cccc(C(=O)Nc2ccc(C(F)(F)F)n(C)c2=O)c1	SIRT5 inh 20
CN(CCc1cnn(C)c1)C(=O)CCc1nnc(CCCc2ccccc2)o1	FGF22 binding 43 (no result: Yeast UUG start)
COC(c1ccccc1)c1nnc(CCC(=O)N(C)CCc2ccccc2)o1 (stereo unspecified)	FGF22 binding 44 (no result: Yeast UUG start)
COC(c1ccccc1)c1nnc(CCC(=O)NCCCc2ccccc2)o1 (stereo unspecified)	none
CC(C)N(Cc1nccn1C)C(=O)CCc1nnc(CCCc2ccccc2)o1	FGF22 binding 44 (no result: Yeast UUG start)
O=C(Cc1cccnc1)N[C@H]1CC[C@@H](CCn2cc(Cc3ccccc3)nn2)O[C@@H]1CO	none (no result: PDI turbidity)
O=C(Nc1ccc(Cl)cc1)N[C@H]1CC[C@H](CCn2cc(C3(O)CCCC3)nn2)O[C@@H]1CO	none (no result: PDI turbidity)
COc1ccc(S(=O)(=O)N(C)C[C@H]2OCCCC[C@H](C)Oc3ccc(NS(=O)(=O)c4ccc(F)cc4)cc3C(=O)N([C@H](C)CO)C[C@@H]2C)cc1	SIRT5 inh 18 (no result: PDI turbidity)
COc1ccc(S(=O)(=O)N(C)C[C@@H]2OCCCC[C@@H](C)Oc3ccc(NS(=O)(=O)c4ccc(F)cc4)cc3C(=O)N([C@H](C)CO)C[C@@H]2C)cc1	none (no result: PDI turbidity)
COc1ccc(S(=O)(=O)N(C)C[C@@H]2OCCCC[C@@H](C)Oc3ccc(NS(=O)(=O)c4ccc(F)cc4)cc3C(=O)N([C@@H](C)CO)C[C@@H]2C)cc1	SIRT5 inh 20 (no result: PDI turbidity)
COc1ccc(S(=O)(=O)N(C)C[C@H]2OCCCC[C@@H](C)Oc3ccc(NS(=O)(=O)c4ccc(F)cc4)cc3C(=O)N([C@H](C)CO)C[C@H]2C)cc1	SIRT5 inh 20 (no result: PDI turbidity)
COc1ccc(S(=O)(=O)Nc2ccc3c(c2)C(=O)N([C@H](C)CO)C[C@@H](C)[C@@H](CN(C)S(=O)(=O)c2ccc(F)cc2)OCCCC[C@H](C)O3)cc1	none (no result: PDI turbidity)
COc1ccc(S(=O)(=O)N(C)C[C@@H]2OCCCC[C@H](C)Oc3ccc(NS(=O)(=O)c4ccc(F)cc4)cc3C(=O)N([C@@H](C)CO)C[C@@H]2C)cc1	SIRT5 inh 20 (no result: PDI turbidity)
CC=Cc1ccc2n(c1=O)C[C@H]1[C@H](CO)[C@@H](C(=O)NCC3CC3)[C@@H]2N1S(=O)(=O)c1cn(C)cn1 (mixture of isomers)	none (no result: S100A4 inh HTS, PDI turbidity, Yeast UUG start)
COc1ccc(CNC(=O)C[C@H]2C=C[C@H](NC(=O)CN(C)C)[C@@H](CO)O2)cc1	none (no result: PDI turbidity)
C[C@H](CO)N1C[C@H](C)[C@@H](CN(C)S(=O)(=O)c2ccccc2)Oc2ccc(NC(=O)Cc3cn(C)c4ccccc34)cc2C1=O	none (no result: PDI turbidity)
O=C(CCN=C1NS(=O)(=O)c2ccccc21)OCC(=O)c1ccccc1Cl	SIRT5 inh 16 (no result: Yeast UUG start)
O=C(CN=C1NS(=O)(=O)c2ccccc21)OCC(=O)c1cc(F)ccc1F	FGF22 binding 43
CN1[C@@H]2c3ccc(-c4ccncc4)c(=O)n3C[C@H]1[C@H](CO)[C@H]2C(=O)NCCc1ccccc1	none (no result: PDI turbidity, Yeast UUG start)
Cc1onc(-c2c(F)cccc2Cl)c1C(=O)OCC(=O)NC(=O)NCC(C)C	FGF22 binding 43 (no result: Yeast UUG start)
CCc1noc(C)c1C(=O)OCC(=O)NCc1ccc(Cl)cc1	SIRT5 inh 18
Cc1noc(C)c1C(=O)OCC(=O)NCCc1ccc(Cl)cc1	PDI turbidity 35 (no result: S100A4 inh HTS, SIRT5 inh, ERp5 block, FGF22 binding)
COc1ccc(S(=O)(=O)Nc2ccc3c(c2)CC(=O)N([C@@H](C)CO)C[C@H](C)[C@H](CN(C)Cc2ccc(C(=O)O)cc2)O3)cc1	none (no result: PDI turbidity)
CS(=O)(=O)N1[C@H](CO)[C@H](c2ccccc2)C12CN(C(=O)c1ccccc1F)C2	ERp5 block inconclusive (no result: PDI turbidity, Yeast UUG start)
CS(=O)(=O)N1[C@@H](CO)[C@@H](c2ccccc2)C12CN(C(=O)c1ccccc1F)C2	SIRT5 inh 19 (no result: PDI turbidity, Yeast UUG start)
CN(C)CC(=O)N1CC2(C1)[C@@H](c1ccccc1)[C@@H](CO)N2S(C)(=O)=O	S100A4 inh HTS 91 (no result: PDI turbidity, Yeast UUG start)
CCC(=O)N1C[C@@H](C)[C@H](OC)CN(C)C(=O)c2ccc(NC(=O)C3CC3)cc2OC[C@H]1C	none (no result: PDI turbidity)
CC(=O)Nc1sc(C)c(C)c1C(=O)OCC(=O)NCc1ccc(Cl)cc1	none
COc1cccc(CNC(=O)COC(=O)c2c(NC(C)=O)sc(C)c2C)c1	FGF22 binding 43
C[C@@H]1CCCCO[C@@H](CN(C)C)[C@H](C)CN([C@H](C)CO)C(=O)c2cc(NC(=O)CCC(F)(F)F)ccc2O1	none (no result: PDI turbidity)
C=CCc1c(C)nc(-c2ccccc2)nc1N/N=C/c1ccccc1	none (no result: Yeast UUG start)
C=CCc1c(C)nc(-c2ccccc2)nc1N/N=C/c1ccncc1	FGF22 binding 43 (no result: Yeast UUG start)
CC(=O)N1[C@H](C)C=C[C@]1(Cc1ccccc1)C(=O)NCc1cc(F)cc(C(F)(F)F)c1	SIRT5 inh 23
COC(=O)[C@@]1(Cc2ccccc2)C=C[C@@H](C)N1C(C)=O	none
CN(C)CCCN(C(=O)c1ccc(S(=O)(=O)N(C)C)cc1)c1nc2cc3c(cc2s1)OCO3	FGF22 binding 43
CCN1CCN(CC(=O)N2N=C(c3cccs3)CC2c2ccc(OC)cc2)C(=O)C1=O (stereo unspecified)	FGF22 binding 43 (no result: Yeast UUG start)
CCN1CCN(CC(=O)N2N=C(c3cccs3)CC2c2ccc(C)cc2)C(=O)C1=O (stereo unspecified)	none (no result: Yeast UUG start)
COc1cc(CNCCc2c[nH]c3ccccc23)cc(Cl)c1OCC(N)=O	FGF22 binding 44
CCOc1cc(CNCCc2c[nH]c3ccccc23)cc(Cl)c1OCC(N)=O	none

Bioassay records: PubChem, Broad Institute
